{"source": "paper PMC5705984", "about": "“Membrane-Active Properties of an Amphitropic Peptide from the CyaA Toxin Translocation Region” (Toxins, 2017)", "assay": "Peptide partition from solution to membrane followed by tryptophan intrinsic fluorescence titration", "assay_type": "physicochemical", "settings": "SUVs DOPC/DOPE/DOPG/Chol 4:3:2:1; tryptophan fluorescence and CD", "description": "Small unilamellar vesicles (SUVs) were prepared at a lipid concentration of 10 mM from POPC and POPG at a molar ratio of 10:0 or 8:2 or from DOPC, DOPE, DOPG, Chol at molar ratio 10:0:0:0, 8:0:2:0, 7:3:0:0, 7:0:0:3, 6:3:0:1, and 4:3:2:1 in buffer A, as previously described. Briefly, SUVs were prepared by reverse-phase evaporation and passed through polycarbonate filters 0.8-, 0.4-, and 0.2-μm (Merck Millipore, Darmstadt, Germany). Vesicles were sonicated using a sonicator tip and their hydrodynamic diameters, dispersity, and charge were checked by dynamic light scattering (DLS) and electrophoretic mobility using a NanoZS instrument (Malvern Instruments, Orsay, France).\nFluorescence titrations were performed with a FP-8200 Jasco spectrofluorimeter, equipped with a Peltier-thermostated ETC-272T (25 °C). […] Fluorescence experiments were carried out in a 109.004F-QS cuvette (Hellma, France) with constant stirring. Fluorescence emission was recorded between 300 and 400 nm at a scan rate of 200 nm/min, with an excitation wavelength of 280 nm. Fluorescence emission spectra were corrected for SUV light scattering. Maximum emission wavelength (λmax) and fluorescence intensity ratio at 330 nm over 370 nm (P454-derived peptides) or at 340 nm over 380 nm (CyaA-derived peptides) were used to report peptide-membrane interaction and to measure the partition coefficient KX. […]", "note": "“Also recorded” adds a separate entry of the source."}
{"smiles": "CSCC[C@H](NC(=O)[C@H](CC(=O)O)NC(=O)[C@H](CO)NC(=O)[C@@H](NC(=O)[C@H](CCC(=O)O)NC(=O)CNC(=O)[C@H](CC(C)C)NC(=O)[C@H](CO)NC(=O)[C@H](Cc1c[nH]c2ccccc12)NC(=O)[C@H](CO)NC(C)=O)C(C)C)C(=O)N[C@@H](C)C(=O)N[C@@H](C)C(=O)N[C@H](C(=O)N[C@@H](CCC(=O)O)C(=O)N[C@@H](C)C(=O)N[C@@H](C)C(=O)N[C@@H](CCC(=O)O)C(=O)N[C@@H](CC(C)C)C(=O)N[C@@H](CCC(=O)O)C(=O)N[C@@H](CCSC)C(=O)N[C@H](C(=O)N[C@@H](CCCNC(=N)N)C(=O)N[C@@H](CCC(N)=O)C(=O)N[C@H](C(=O)N[C@@H](CC(C)C)C(=O)N[C@@H](Cc1c[nH]cn1)C(=O)N[C@@H](C)C(N)=O)C(C)C)[C@@H](C)O)C(C)C", "note": "[Peptide P414]", "values": [{"measurement": "ability to interact with / partition into membranes", "value": "no detectable change of tryptophan fluorescence or CD signature; also recorded: do not"}]}
